Where two headings read alike, the source gives them in different places.
Experiments:
ZR-75-30 = assay: In vitro inhibition of proliferation assay (WST-8), ZR-75-30; format: cell-based; details: Data Set I, experiment Sept. 4, 2010, read-out: IC50 Values [nM] after 72 hr drug treatment
Protocol: (§1) At day 1, the cells were seeded. The media was aspirated and the T-225 culture flasks of cells was rinsed with 30 mL PBS−/. PBS was aspirated and 6 mL of 0.25% Trypsin-EDTA was added to each flask. The flasks were incubated at 37° C., 5% CO2 for 2-5 minutes. Adherent cells were dislodged by hitting flask and trypsin was neutralized by adding 14 mL culture medium. The cell suspension was mixed and transferred to a 50 mL conical tube. The cells were spun down at 1200 rpm, 5 min, room temperature. The resultant cell pellet was resuspended in 12 mL of culture medium. The cells were counted in a hemacytometer. Cells were seeded at appropriate cell densities into 96-well flat-bottom, clear plates and incubated overnight at 37° C., 5% CO2 to allow cells to attach. Plating volume was 80 uL/well. 80 uL/well of culture medium was utilized as the “no cell” control.
(§2) At day 2, the test samples were added to the cells. The test samples were diluted in culture medium to a 9× stock concentration in Column 2 of a round-bottom 96-well plate. 3× serial dilutions were made from Column 2 to Column 11 with a multi-channel pipettor. 10 uL/well of the above samples was added in duplicate to the appropriate wells of the seeded plate. The total volume in the wells was about 90 uL/well. […]
(§3) At day 5, proliferation readout occurred. […] The plates were measured for absorbance at OD 450 nm. […]

HCC1954 = assay: In vitro inhibition of proliferation assay (WST-8), HCC1954; format: cell-based, human; details: read-out: IC50 Values [nM] after 72 hr drug treatment
Protocol: as §1
(§4) Cell plating density examples include: • BT474 (high Her2)—20,000 cells/well in F12k/DMEM (50/50), 10% FBS, P/S • MDA-MB-468 (Her2 negative)-6,000 cells/well in F12k/DMEM (50/50), 10% FBS, P/S • HCC1954—5,000 cells/well in RPMI 1640, 10% FBS, P/S • SKOV-3—6,000 cells/well in RPMI 1640, 10% FBS, P/S • HT29—20,000 cells/well in McCoy's 5A, 10% FBS, P/S
(§5) At day 2, the test samples were added to the cells. […]
as §3

HT29 = assay: In vitro inhibition of proliferation assay (WST-8), HT29; format: cell-based; details: Data Set II, experiment Sept. 24, 2010, read-out: IC50 Values [nM] after 72 hr drug treatment
Protocol: as §1, §4, §5, §3

MDA-MB-468 = assay: In vitro inhibition of proliferation assay (WST-8), MDA-MB-468; format: cell-based; details: Data Set II, experiment Oct. 8, 2010, read-out: IC50 Values [nM] after 72 hr drug treatment
Protocol: as §1, §4, §5, §3

SKOV-3 = assay: In vitro inhibition of proliferation assay (WST-8), SKOV-3; format: cell-based
Protocol: as §1, §4
(§6) At day 2, the test samples were added to the cells. The test samples were diluted in culture medium to a 9× stock concentration in Column 2 of a round-bottom 96-well plate. 3× serial dilutions were made from Column 2 to Column 11 with a multi-channel pipettor. 10 uL/well of the above samples was added in duplicate to the appropriate wells of the seeded plate. The total volume in the wells was about 90 uL/well. 10 uL/well of culture medium was added to avoid edge effects for sample wells. Media Control wells were included in the inner wells where no sample was added (just 10 uL/well of culture medium) to be used in proliferation calculations. The plates were incubated at 37° C., 5% CO2 for 72 hrs.
as §3

LS513 = assay: In vitro inhibition of proliferation assay (WST-8), LS513; format: cell-based; details: Data Set I, experiment Sept. 4, 2010, read-out: IC50 Values [nM] after 72 hr drug treatment
Protocol: as §1, §2, §3

NCI-N87 = assay: In vitro inhibition of proliferation assay (WST-8), NCI-N87; format: cell-based; details: Data Set I, experiment Sept. 4, 2010, read-out: IC50 Values [nM] after 72 hr drug treatment
Protocol: as §1, §2, §3

[1] = tested on: HCC1954 (human breast carcinoma) xenograft; assay: In vivo anti-tumor efficacy in HCC1954 xenograft, SCID-bg mice; details: day 28, HCC1954 study
Protocol: HCC1954 (human breast carcinoma) cells were obtained from American Type Culture Collection (Manassas, VA) and cultured in RPMI+10% FBS, 37° C., 5% CO2 until 80% confluent. Cells were harvested by trypsinization and suspended in PBS at 1×10^8 cells/mL.
Female, SCID-beige mice, 5-8 weeks old, were obtained from Charles River Laboratories. HCC1954 cells (human, breast carcinoma, ATCC, #CRL-2338) were mixed 1:1 with Matrigel (BD Biosciences, Bedford MA) and injected subcutaneously into the mice. When tumors reached an average size of 100-200 mm^3, mice were sorted into groups of 9-10 mice each. Caliper measurements were taken twice weekly until the end of the study. To estimate tumor volume, two orthogonal diameters were measured with calipers and the values entered into the formula, (L×W×W)/2=V, (where W=the shortest diameter, L=the longest diameter and V-volume), to obtain an estimated volume. The tumor volume was converted to tumor weight in the Excel data file by assuming 1 mm^3=1 mg. Endpoint was based on a study design of tumor growth inhibition (TGI). When the mean tumor volume of the control group reached approx. 1,000 mm^3 all mice were euthanized or day 28, whichever came first.
Mice were given a single IV injection (tail vein) on day 1 of dosing. Test article was dissolved at 4 mg/mL, 2 mg/mL and 0.66 mg/mL and administered at a dose volume of 5 mL/kg to deliver 20, 10 and 3.3 mg/kg. Test articles were: Herceptin® clinical grade (Trastuzumab), Her2-HS122-NCD1 (Ab:Drug ratio=1:2, non-cleavable linker), and Her2-HS122/LK145-HCD1 (Ab:Drug ratio=1:4, cleavable linker) See FIG. 16.
HCC1954 cells were utilized for this study with 10 cells/mouse in Matrigel, SC in the right flank. Mice were SCID-bg female 4-8 weeks. Grouping was performed at day 5 after cell implantation (tumors˜100 mm^3): sorted into 11 groups of 10 mice each. A single IV dose was given on day 1 of dosing with each compound at 3 dose levels, 20 mg/kg, 10 mg/kg and 3.3 mg/kg. Tumor volume was monitored until the endpoint was reached (1,000 mm^3 or 60 days). (FIG. 10) Paclitaxel 25 mg/kg, IV, qod×5 was employed as the control chemotherapy. The vehicle=50 mM histamine, 0.1 M NaCl, 5% trehalose, pH 6. Herceptin® clinical grade (Trastuzumab), Her2-14S122-NCD1 (non-cleavable linker) and Her2-HS122/LK145-HCD1 (cleavable linker) were tested. (FIGS. 11 and 12)

BT474 = assay: In vitro inhibition of proliferation assay (WST-8), BT474; format: cell-based
Protocol: as §1, §4, §6, §3

MDA-MB-175 = assay: In vitro inhibition of proliferation assay (WST-8), MDA-MB-175; format: cell-based; details: Data Set I, experiment Sept. 13, 2010, read-out: IC50 Values [nM] after 72 hr drug treatment
Protocol: as §1, §2, §3

[2] = Data Set I, experiment Sept. 4, 2010, read-out: IC50 Values [nM] after 72 hr drug treatment
[3] = Data Set I, experiment Sept. 13, 2010, read-out: IC50 Values [nM] after 72 hr drug treatment

Herceptin: Herceptin clinical grade (Trastuzumab), humanized monoclonal antibody that binds HER2/neu receptor
IC50 (ZR-75-30): > 300 nM | IC50 (HCC1954; HCC1954, Data Set I, experiment Sept. 4, 2010): > 300 nM | IC50 (HCC1954; HCCI954, Data Set II, experiment Oct. 8, 2010): > 300 nM | IC50 (HT29): > 300 nM | IC50 (MDA-MB-468): > 300 nM | IC50 (SKOV-3; [2]): > 300 nM | IC50 (SKOV-3; [3]): > 300 nM | IC50 (SKOV-3; Data Set II, experiment Oct. 8, 2010, read-out: IC50 Values [nM] after 72 hr drug treatment): > 300 nM | IC50 (LS513): > 300 nM | IC50 (NCI-N87): > 300 nM | Median Tumor Volume (mm3) ([1]; 3.3 mg/kg iv qd × 1): 405 mm3 | T/C (Treated/Control) ([1]; 3.3 mg/kg iv qd × 1): 0.833 | Median Tumor Volume (mm3) ([1]; 10 mg/kg iv qd × 1): 446 mm3 | T/C (Treated/Control) ([1]; 10 mg/kg iv qd × 1): 0.918 | Median Tumor Volume (mm3) ([1]; 20 mg/kg iv qd × 1): 385 mm3 | T/C (Treated/Control) ([1]; 20 mg/kg iv qd × 1): 0.792 | IC50 (BT474; [2]): > 300 nM | IC50 (BT474; [3]): > 300 nM | IC50 (BT474; Data Set II, experiment Sept. 24, 2010, read-out: IC50 Values [nM] after 72 hr drug treatment): > 300 nM | IC50 (MDA-MB-175): > 300 nM
